In paper PMC12796744:

Target: nucleosome containing the histone variant H2A.Z (UniProt P0C0S5)
Assay: multiplex bead-based nucleosome binding assay (Luminex xMAP); biotinylated mononucleosomes on spectrally distinct streptavidin MagPlex beads, pooled panel; 0 to 5 nM GST-tagged HMGN protein in solution; 50 mM NaCl, 25 mM Hepes pH 7.5, 1 mM DTT, 0.5% BSA, 0.1% Tween-20; room temperature, 2 h; detected with anti-GST and phycoerythrin secondary antibody; relative binding taken at 0.625 nM protein

Work on “GST-HMGN2 (from UniProt P05204 1-90) (natural protein)” yielded a fold binding over the canonical nucleosome of 2 fold.
